Measurements: patent US5789654A, “Transgenic animals deficient in endogenous β3 -adrenergic receptor and uses thereof” (Beth Israel Hospital Association, priority 1996, dated 1998)

Test system: β3 -AR
Assay type: in vivo, mouse
Conditions: β3 -AR-deficient mice; fifteen minutes after injection; 10 mg/ml
Description: Mice that received norepinephrine were anesthetized with pentobarbital for the study.
Oxygen consumption was measured as described by Lowell et al. (supra) in twelve-week-old control, β3 -AR-deficient male mice, and β3 -AR-deficient knockout mice expressing the human β3-AR gene.

With `CC(C)(C)NCC(O)COc1cccc2[nH]c(=O)[nH]c12` (stereo not shown) [CGP-12177] the oxygen consumption was “decreased oxygen consumption”.
